Measured values as given in patent EP4825847A1, “NMDA RECEPTOR ANTAGONIST AND USE THEREOF” (dated 2026).

How the values were obtained:
[1] = test system: C57BL/6J male mice; test: Toxicity test of compounds (non-toxic dose exploration, epilepsy-like behavior score); conditions: i.p.; for NOAEL dosage (mg/kg) (score 0) / Minimum toxic dose (mg/kg) (score 1): about one hour observation; for NOAEL dosage (mg/kg) (score 0): epilepsy-like behavior score 0; for Minimum toxic dose (mg/kg) (score 1): epilepsy-like behavior score 1
Protocol: The exploration test of non-toxic dose of the compound is an important index to evaluate the safety of the compound. High safety will bring a higher treatment window. The animal information was the same as that in Test Example 2.
• 1. The test was carried out in a quiet environment. The animals were weighed and acclimated in the test chamber for at least 30 min before the test. • 2. The compound to be tested was dissolved in 0.9% physiological saline, and the corresponding volume of the compound was intraperitoneally injected (i.p.) according to the weight of mice. The dosage was the target dosage of administration. The number of animals in each group was 2 or 3. • 3. The mice after administration were placed in a transparent observation chamber, and the behavior changes of the mice were video recorded and observed for about one hour. (Note: During the observation period, if the mouse was lying still, the mouse was turned over by hand, and whether the righting reflex (RR) of the mouse disappeared was checked. If disappeared, the mouse was in an anesthetic state, and the time of anesthesia of the mouse was recorded). • 4. After the one-hour observation, the mice were returned to the rearing cage. The observation chamber was wiped with 75% alcohol, to avoid the influence of the information left by animals in the last round (such as the smell of animals' feces and urine) on the next test result. The next round of animals were changed to continue the test.
Table C. Epilepsy-like behavior rating scale for rodents

[2] = test system: C57BL/6J male mice; test: Pre-pulse inhibition test; conditions: 45 mg/kg
Text: Pre-pulse inhibition phenomenon is an important parameter to evaluate the sensorimotor gating function, and an index to evaluate schizophrenia-like behavior. This phenomenon means that a weak stimulus occurring before a strong stimulus will reduce the degree of animal response to the strong stimulus. In the present invention, the PPI test was used to evaluate whether the compound could induce psychotomimetic-like behavior in mice.
The animal information was the same as that in Test Example 2. The number of animals in each group (N) was 10, and the administration mode was intraperitoneal injection or oral administration (p.o.). The dosage of S-ketamine was 20 mg/kg, the dosage of other compounds was 45 mg/kg, and the administration volume was 10 mL/kg. The dosage for oral administration was 10 mg/kg.
Test process: The test was carried out in a quiet environment. The mice were weighed and acclimated in the test chamber for at least 30 min before the test. The PPI test was divided into four stages, including: acclimation stage, Block 1, Block 2, and Block 3. At the beginning of the test, the mice were given corresponding doses of solvent (control group) or test compound according to their body weight. Then the mice were placed in a startle response chamber and allowed to acclimate for 5 min without stimulation. Then in Block 1-3, the mice were given startle stimuli of varying decibel intensities. In Block 1 and Block 3, 10 trials were set, and each trial had no pre-pulse stimuli. The startle stimulus was set to be white noise of 120 dB. The time interval between trials varies randomly from 10 to 15 sec. Block 2 was set to have 56 trials. There were three types of stimuli: (1) a continuous startle stimulus of 120 dB was given in 8 trials; (2) a pre-pulse stimulus of 67, 70, 73, or 76 dB was given first and then a startle stimulus of 120 dB was given in 32 trials, and only pre-pulse stimulus (two trials for each of the four pre-pulse stimuli) was given in 8 trials; and (3) no stimulus was given in 8 trials, and the duration was 200 ms. The duration of pre-pulse stimulus was 20 ms, and the fixed interval was 100 ms. The duration of startle stimulus in all Block was 40 ms, and the background noise was set to 62dB. The instrument was wiped with 75% alcohol after each test, to avoid the influence of the information left by animals in the last round (such as the smell of animals' feces and urine) on the next test result. The difference was analyzed by unpaired t-test to have statistical significance, where P<0.05 means that there was a significant difference. ^# P<0.05, * P<0.05, ** P<0.01, *** P<0.001. […] Compound 2SS mesylate tends to cause loss of PPI at a pre-pulse level of 67 dB and 70 dB. Compound 2RR mesylate causes loss of PPI at a pre-pulse level of 76 dB. […]

[3] = test system: C57BL/6J male mice; test: Forced swimming test
Protocol: Test animals: C57BL/6J male mice aged 10-12 weeks were purchased from Speifu (Suzhou) Biotechnology Co., Ltd. The animals arrived at the test center before the test and acclimated in the feeding room for more than 7 days. 5 animals per cage was bred at a temperature of 23-24°C, under a 12-hr light/12-hr dark cycle. Before the behavioral test, the animals were taken to the behavioral test chamber 1 hour in advance, to acclimate to the environment.
Forced swimming test is a standard behavioral test to evaluate the depressive behavior of rodents. […] It is generally accepted that this behavioral despair is similar to the depressive symptoms in humans. The objective of this test was to evaluate the antidepressant efficacy of the compound of the present invention in C57 mice.
In the FST test, the number of animals in each group (N) was 15, the administration mode was intraperitoneal injection (i.p.) or oral gavage (p.o.), the dosage of administration was 5, 10 or 20 mg/kg (depending on the experimental needs), and the volume of administration was 10 mL/kg. The vehicle was 0.9% physiological saline.
Test process: 1. The test was carried out in a quiet environment. The animals were weighed and acclimated in the test chamber for at least 30 min before the test.
2. The compound to be tested was dissolved in 0.9% physiological saline, and the corresponding volume of the compound was given by intraperitoneal injection (i.p.) or oral gavage (p.o.) according to the weight of mice and used as the test group. 0.9% physiological saline was used as the control group, and the dosage was the target dosage of administration. The administration process was double-blinded administration.
3. 1 hr after administration, the mice were placed in a transparent plexiglass water tank with a diameter of 15 cm and a height of 30 cm, in which water was injected to a height of about 15 cm, and the water temperature was 23-25°C. The total recording time was 6 min.
4. The immobility time of mice within later 4 min was analyzed, with which the degree of helplessness and despair of mice was reflected.
5. The immobility time of mice between the administration group and the control group was compared, and the antidepressant activity (1-h inhibition rate) of the compound to be tested was analyzed. The difference was analyzed by unpaired t-test to have statistical significance, P<0.05 means that there was a significant difference. * P<0.05, **P<0.01, ***P<0.001. [formula]

[4] = test system: C57BL/6J male mice; test: Open field test of mice; conditions: intraperitoneal administration of 10 mg/kg; compared with the vehicle group
Text: Open field test is a standard behavioral method to evaluate the voluntary movement behavior and the exploratory behavior, which is widely used in the research of neurological and psychiatric diseases such as depression, anxiety, Parkinson's disease and screening of drugs acting on central nervous system.
Due to the limited tests to evaluate the hallucinogenic effect of NMDAR antagonists, the open field test is used in the present invention to evaluate whether the compound affects the spontaneous locomotor activity of mice and also used to indirectly evaluate whether the compound has hallucinogenic effect. Furthermore, the increase of spontaneous locomotor activity of mice is also considered as one of the positive symptoms of schizophrenia. Therefore, the open field test can also be used to evaluate whether the compound has the psychotomimetic-like side effects.
The animal information was the same as that in Test Example 2. The number of animals in each group (N) was 10, the administration mode was intraperitoneal injection or oral administration, the dosage of administration was 5 or 10 mg/kg, and the volume of administration was 10 mL/kg.
Test process: The open field test chamber was a soundproof chamber made of opaque plexiglass and having an inner diameter of 40*40*40 cm, and the analysis software was purchased from Noldus (Ethovision XT 11.5). The test was carried out in a quiet environment. The animals were weighed and acclimated in the test chamber for at least 30 min before the test. Before the test, the software EthoVision XT 11.5 was set, the wild-type mice were placed at the center of the bottom of the chamber, and the activity within 30 min or 20 min was recorded as the baseline. After 30 min, the mice were taken out and given corresponding doses of solvent (control group) or test compound according to their body weight. Immediately after administration, the mice were placed in the same observation chamber as that in the baseline stage, and their activities within 40 min after administration were recorded. The instrument was wiped with 75% alcohol after each test, to avoid the influence of the information left by animals in the last round (such as the smell of animals' feces and urine) on the next test result. The next round of animals were changed to continue the test. After the test, data were collected for statistical analysis. The difference was analyzed by unpaired t-test to have statistical significance, where P<0.05 means that there was a significant difference. ^# P<0.05, * P<0.05, **P<0.01, ***P<0.001, **** P<0.0001. After the test, the distance (cm) traveled by the mice in the control and test compound groups every 5 min was statistically analyzed. 33 to 36.

[5] = Pharmacokinetic test in mice
Protocol: The test was to investigate the pharmacokinetic characteristics of the compound of the present invention in C57BL/6J male mice after oral administration (oral gavage) and intravenous injection.
Male C57BL/6J mice aged 10-12 weeks were given the solution of the compound by intravenous injection (i.v.) and oral administration (p.o.) respectively. The vehicle for intravenous injection was 0.9% physiological saline for injection. The administration dosage volume was 5 mL/kg. The animals were allowed to normal access to food and water before administration. The vehicle for oral administration was 0.9% physiological saline for injection. The administration dosage volume was 10 mL/kg. The animals were fasted for 16 hrs before administration. 0.0333, 0.1667, 0.3330, 1, 2, 4, 6, 8, 24 hrs after administration, about 70 µL of blood was collected from the facial veins of the two groups of animals, transferred to an anticoagulant tube with EDTA-K2, placed on ice, and then centrifuged at 4 Celsius degrees in 1 hr to separate the plasma (4500 g, 15 min). The drug concentration was analyzed by LC-MS/MS, and the related pharmacokinetic parameters were calculated through the linear-log trapezoidal method by non-compartmental analysis using PKSolver2.0 kinetic software.

[6] = Intravenous administration, 1 mg/kg

Row | SMILES | NOAEL dosage (mg/kg) (score 0) [1] | Minimum toxic dose (mg/kg) (score 1) [1] | PPI ([2]; pre-pulse level of 67 dB and 70 dB) | PPI ([2]; pre-pulse level of 76 dB) | antidepressant effect ([3]; 10 mg/kg p.o.) | 1-h inhibition rate ([3]; p.o., 20 mg/kg, immobility time 1 hr after administration) | STD10 (mg/kg) (score 8) ([1]; dose at which 10% of the animals have severe toxic reaction, score 8) | distance traveled by the mice [4] | AUC0-last [5, 6] | Cl [5, 6] | Bioavailability (F%) ([5]; Oral administration 20 mg/kg vs i.v. 1 mg/kg) | AUC0-last ([5]; Oral administration, 20 mg/kg) | T1/2 ([5]; Oral administration, 20 mg/kg)
1 | Clc1cccc([C@@]23CCCC[C@@H]2OCCN3)c1 | 25 mg/kg | 35 mg/kg | tends to cause loss of PPI |  |  |  |  |  |  |  |  |  | 
2 | Clc1cccc([C@]23CCCC[C@H]2OCCN3)c1 | 45 mg/kg | 60 mg/kg |  | causes loss of PPI |  |  |  |  |  |  |  |  | 
3 | c1ccc([C@@]23CCCC[C@@H]2OCCN3)cc1 | 20 mg/kg | 40 mg/kg |  |  | significant antidepressant effect | 42.8% | 250 mg/kg | no significant difference | 241 ng·h/mL | 68 mL/min/kg | 40% | 1951 ng·h/mL | 1.02 h
